In US9944618B2, “Inhibiting neurotransmitter reuptake” (Mayo Foundation for Medical Education and Research, priority 2013, dated 2018):
pIC50, pKi: −log10 of the molar value. Read-outs that look alike come from different tables or passages of the source. Values belong to the molecule of their own block, whether it stands above or below them.

By UniProt entry, the sequences of proteins in these tests, tags left out. Where a name states a change or a piece, a line headed by the entry shows the natural chain unless it says otherwise.
UniProt P31645, whole entry: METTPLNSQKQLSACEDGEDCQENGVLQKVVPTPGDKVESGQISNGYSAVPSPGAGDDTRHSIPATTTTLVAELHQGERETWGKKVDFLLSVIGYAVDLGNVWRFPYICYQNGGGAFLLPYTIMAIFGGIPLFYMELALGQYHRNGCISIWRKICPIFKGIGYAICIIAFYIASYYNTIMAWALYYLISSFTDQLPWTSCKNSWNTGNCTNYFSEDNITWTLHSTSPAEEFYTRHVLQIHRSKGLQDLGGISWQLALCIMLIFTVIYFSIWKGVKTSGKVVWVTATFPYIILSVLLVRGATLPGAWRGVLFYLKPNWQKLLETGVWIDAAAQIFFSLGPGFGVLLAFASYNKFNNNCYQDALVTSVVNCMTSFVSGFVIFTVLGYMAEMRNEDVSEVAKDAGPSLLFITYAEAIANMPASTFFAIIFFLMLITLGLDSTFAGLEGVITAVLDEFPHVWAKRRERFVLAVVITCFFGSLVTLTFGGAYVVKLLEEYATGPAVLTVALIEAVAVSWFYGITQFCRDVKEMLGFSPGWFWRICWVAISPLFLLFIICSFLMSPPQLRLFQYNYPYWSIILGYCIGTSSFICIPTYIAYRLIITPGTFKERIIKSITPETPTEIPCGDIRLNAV
UniProt Q12809: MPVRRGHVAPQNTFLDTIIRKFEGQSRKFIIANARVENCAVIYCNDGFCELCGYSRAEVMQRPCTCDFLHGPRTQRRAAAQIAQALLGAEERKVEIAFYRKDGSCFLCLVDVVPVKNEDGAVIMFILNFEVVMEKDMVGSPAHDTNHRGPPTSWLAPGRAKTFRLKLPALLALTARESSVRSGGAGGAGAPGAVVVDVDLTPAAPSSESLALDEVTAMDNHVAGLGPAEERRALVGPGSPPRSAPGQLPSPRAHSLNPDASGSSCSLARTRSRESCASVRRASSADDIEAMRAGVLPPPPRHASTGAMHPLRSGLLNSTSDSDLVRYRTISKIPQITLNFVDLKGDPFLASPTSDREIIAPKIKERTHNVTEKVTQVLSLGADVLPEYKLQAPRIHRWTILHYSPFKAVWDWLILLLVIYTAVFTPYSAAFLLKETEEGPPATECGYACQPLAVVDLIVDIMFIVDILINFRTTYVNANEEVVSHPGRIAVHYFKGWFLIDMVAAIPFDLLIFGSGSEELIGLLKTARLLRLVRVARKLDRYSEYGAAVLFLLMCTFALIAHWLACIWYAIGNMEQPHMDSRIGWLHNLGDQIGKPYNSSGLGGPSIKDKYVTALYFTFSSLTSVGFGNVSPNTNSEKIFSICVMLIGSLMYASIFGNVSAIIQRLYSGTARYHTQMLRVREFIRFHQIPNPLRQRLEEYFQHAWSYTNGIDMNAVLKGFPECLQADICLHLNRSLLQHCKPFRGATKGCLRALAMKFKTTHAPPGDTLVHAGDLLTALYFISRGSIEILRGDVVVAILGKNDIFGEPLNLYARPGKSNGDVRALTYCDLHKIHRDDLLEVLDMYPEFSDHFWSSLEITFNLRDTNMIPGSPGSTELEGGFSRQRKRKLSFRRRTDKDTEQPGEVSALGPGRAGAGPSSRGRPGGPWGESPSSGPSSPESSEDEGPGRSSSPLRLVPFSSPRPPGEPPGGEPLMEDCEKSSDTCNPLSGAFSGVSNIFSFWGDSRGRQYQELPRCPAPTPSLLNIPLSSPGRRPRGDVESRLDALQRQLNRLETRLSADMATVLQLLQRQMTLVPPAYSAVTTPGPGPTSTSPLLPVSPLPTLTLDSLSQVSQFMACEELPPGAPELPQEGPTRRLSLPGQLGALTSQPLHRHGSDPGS
UniProt P23975, whole entry: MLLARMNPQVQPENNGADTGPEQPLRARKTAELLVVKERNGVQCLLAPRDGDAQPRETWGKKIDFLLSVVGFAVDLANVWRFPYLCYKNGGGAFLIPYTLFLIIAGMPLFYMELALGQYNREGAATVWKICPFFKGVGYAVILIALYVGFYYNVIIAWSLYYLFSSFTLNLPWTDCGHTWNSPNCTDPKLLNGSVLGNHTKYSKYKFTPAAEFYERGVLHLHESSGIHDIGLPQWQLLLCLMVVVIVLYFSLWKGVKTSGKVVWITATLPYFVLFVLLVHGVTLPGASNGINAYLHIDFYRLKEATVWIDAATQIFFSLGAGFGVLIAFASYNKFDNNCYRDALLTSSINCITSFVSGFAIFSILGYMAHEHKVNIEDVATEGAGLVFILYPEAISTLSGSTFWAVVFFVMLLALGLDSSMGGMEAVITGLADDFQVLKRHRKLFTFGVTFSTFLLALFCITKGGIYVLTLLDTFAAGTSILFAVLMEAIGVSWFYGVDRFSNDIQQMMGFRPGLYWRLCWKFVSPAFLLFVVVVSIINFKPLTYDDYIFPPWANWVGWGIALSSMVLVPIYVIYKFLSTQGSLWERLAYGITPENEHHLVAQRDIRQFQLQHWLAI
UniProt Q01959, whole entry: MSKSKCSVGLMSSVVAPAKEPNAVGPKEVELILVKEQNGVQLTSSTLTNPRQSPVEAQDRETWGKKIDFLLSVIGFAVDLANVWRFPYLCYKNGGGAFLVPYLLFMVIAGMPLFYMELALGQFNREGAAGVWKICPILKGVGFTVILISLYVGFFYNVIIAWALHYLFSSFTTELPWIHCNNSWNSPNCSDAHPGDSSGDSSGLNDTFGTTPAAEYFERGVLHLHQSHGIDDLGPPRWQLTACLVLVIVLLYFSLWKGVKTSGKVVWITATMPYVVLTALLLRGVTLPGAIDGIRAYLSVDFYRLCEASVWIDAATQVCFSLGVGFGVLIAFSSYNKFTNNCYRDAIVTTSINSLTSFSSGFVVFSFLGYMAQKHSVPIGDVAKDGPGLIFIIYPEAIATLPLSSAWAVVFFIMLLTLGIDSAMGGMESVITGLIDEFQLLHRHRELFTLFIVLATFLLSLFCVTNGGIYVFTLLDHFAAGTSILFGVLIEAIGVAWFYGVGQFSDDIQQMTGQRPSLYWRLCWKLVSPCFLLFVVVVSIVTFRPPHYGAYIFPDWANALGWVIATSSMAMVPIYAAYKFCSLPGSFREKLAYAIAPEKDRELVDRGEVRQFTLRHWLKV

What was measured:
[1] = target: human serotonin transporter (Homo sapiens (Human), UniProt P31645); assay: Human SERT (serotonin transporter) uptake assay; settings: read-out: hSERT Ki
[2] = target: hERG (Homo sapiens (Human), UniProt Q12809); assay: Human ERG (hERG) assay, hERG currents in hERG-expressing CHO cells; assay type: cell-based; settings: selected reference compounds
[3] = target: human norepinephrine transporter (Homo sapiens (Human), UniProt P23975); assay: Human NET (norepinephrine transporter) uptake assay; assay type: cell-based; settings: selected reference compounds, HEK293F cells, Cheng-Prusoff; read-out: hNET Ki
[4] = target: human dopamine transporter (Homo sapiens (Human), UniProt Q01959); assay: Human DAT (dopamine transporter) uptake assay; assay type: cell-based; settings: selected reference compounds, HEK293F cells, Cheng-Prusoff; read-out: hDAT Ki

SMILES: CN(C)C[C@H](c1ccc2ccccc2c1)[C@H](O)c1ccccc1 [Compound 83]
- pKi [1]: 8.29

SMILES: CNCCCN1c2ccccc2CCc2ccccc21 [compound 174]
- pIC50 [2]: 4.89

SMILES: CC(NC(C)(C)C)C(=O)c1cccc(Cl)c1 (stereo not drawn) [compound 176]
- pKi [3]: 5.44

- pKi [3]: 6.18
- pKi [4]: 5.43
- pKi ([1]; selected reference compounds, HEK293F cells, Cheng-Prusoff): 8.39
SMILES: CN(C)CC(c1ccc(O)cc1)C1(O)CCCCC1 (stereo not drawn) [compound 181]
